Assay results from ChEMBL document CHEMBL1139920, “Synthesis and biological evaluation of diamine-based histamine H3 antagonists with serotonin reuptake inhibitor activity” (Bioorg Med Chem Lett, 2007).

The chains behind the UniProt entries cited, without tags or fusion partners.
UniProt P31652, whole entry: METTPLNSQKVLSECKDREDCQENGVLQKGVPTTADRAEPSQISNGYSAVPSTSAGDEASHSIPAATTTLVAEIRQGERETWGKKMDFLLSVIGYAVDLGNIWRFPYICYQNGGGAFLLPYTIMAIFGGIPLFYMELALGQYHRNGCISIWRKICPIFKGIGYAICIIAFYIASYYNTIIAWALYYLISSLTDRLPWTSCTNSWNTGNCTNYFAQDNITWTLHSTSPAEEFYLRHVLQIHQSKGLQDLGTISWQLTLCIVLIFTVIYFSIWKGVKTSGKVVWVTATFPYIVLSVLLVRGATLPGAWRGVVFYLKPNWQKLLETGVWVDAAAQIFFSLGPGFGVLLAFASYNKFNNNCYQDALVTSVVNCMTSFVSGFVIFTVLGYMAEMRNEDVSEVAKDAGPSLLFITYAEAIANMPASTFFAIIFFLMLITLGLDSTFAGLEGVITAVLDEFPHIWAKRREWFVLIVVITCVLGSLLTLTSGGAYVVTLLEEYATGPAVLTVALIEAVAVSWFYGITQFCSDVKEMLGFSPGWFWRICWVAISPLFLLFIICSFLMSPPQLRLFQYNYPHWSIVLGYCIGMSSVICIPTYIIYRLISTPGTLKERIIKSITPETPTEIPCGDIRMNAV

Target: Sodium-dependent serotonin transporter (Rattus norvegicus, UniProt P31652)
Assay: Binding affinity at rat SERT

pKi: 7.36
Structure (SMILES): CC(C)N1CCN(C(=O)c2ccc(C(CCN(C)C)Oc3ccc(C(F)(F)F)cc3)cc2)CC1 (stereo unspecified)

pKi: −log10 of the molar value.
